Molecular target: Chymotrypsinogen A (Bos taurus, UniProt P00766)
Assay: Compound was tested for its activity against bovine pancreatic Alpha-chymotrypsin (BPC)

IC50 [µM]	SMILES
16	C[C@H]1C(=O)N(C(=O)NCc2ccncc2)[C@H]1Cc1ccccc1
> 75	C[C@@H]1C(=O)N(C(=O)NCc2ccncc2)[C@H]1Cc1ccccc1

— ChEMBL document CHEMBL1131042, “beta-Lactam derivatives as inhibitors of human cytomegalovirus protease” (J Med Chem, 1998)
